# Measured values from paper PMC9751974 (Frontiers in Microbiology, 2022).
# Test system: E. coli ATCC25922
# Details: LB broth, 1 × 10^5 CFU/mL, 37°C, 16–24 h, triplicate
# Experimental: The MIC values of peptides against E. coli ATCC25922 were determined by the microtiter broth dilution method. The bacteria were grown to the mid-logarithmic phase and diluted into the Luria-Bertani (LB) broth at 1 × 10^5 CFU/mL. […] Polymyxin and the sterile aqua distillate were tested as control. All assays were performed in triplicate.
compound,measurement,value
CC[C@@H](C)[C@@H](NC(=O)[C@@H](CCCNC(=N)N)NC(=O)[C@H](NC(=O)[C@@H](C)NC(=O)[C@H](NC(=O)[C@H](NC(=O)[C@@H](CC(C)C)NC(=O)[C@@H](CCCNC(=N)N)NC(=O)[C@H](N)C(C)C)[C@H](C)CC)C(C)C)C(C)C)C(=O)N[C@H](Cc1c[nH]c2ccccc12)C(=O)N[C@H](CCCNC(=N)N)C(=O)N[C@H](CCCNC(=N)N)C(N)=O [D1018],MIC,8 µg/mL
